Assay results from ChEMBL document CHEMBL1145963, “Identification, synthesis, and activity of novel blockers of the voltage-gated potassium channel Kv1.5” (J Med Chem, 2003).

The chains behind the UniProt entries cited, without tags or fusion partners.
UniProt P22460, whole entry: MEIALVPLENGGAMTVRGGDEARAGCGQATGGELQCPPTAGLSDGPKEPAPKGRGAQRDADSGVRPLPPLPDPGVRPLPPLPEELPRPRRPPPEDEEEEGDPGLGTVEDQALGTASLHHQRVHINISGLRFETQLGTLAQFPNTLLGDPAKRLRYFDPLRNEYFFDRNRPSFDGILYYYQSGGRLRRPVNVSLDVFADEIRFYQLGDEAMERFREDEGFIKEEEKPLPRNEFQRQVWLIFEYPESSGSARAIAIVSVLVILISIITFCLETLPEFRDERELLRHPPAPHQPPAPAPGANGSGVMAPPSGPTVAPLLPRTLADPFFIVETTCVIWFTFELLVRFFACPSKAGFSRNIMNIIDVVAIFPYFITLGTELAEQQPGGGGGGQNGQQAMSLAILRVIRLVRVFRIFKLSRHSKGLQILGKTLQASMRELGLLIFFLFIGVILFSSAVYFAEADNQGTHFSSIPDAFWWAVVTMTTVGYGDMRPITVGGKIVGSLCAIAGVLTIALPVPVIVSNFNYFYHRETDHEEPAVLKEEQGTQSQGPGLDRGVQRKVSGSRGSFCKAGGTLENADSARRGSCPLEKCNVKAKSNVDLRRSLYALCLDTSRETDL

Target: Potassium voltage-gated channel subfamily A member 5 (Homo sapiens, UniProt P22460)
Assay: Inhibition of human voltage-gated potassium channel subunit Kv1.5 expressed in Xenopus oocytes
Assay type: cell-based, Oocyte
In short: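 Compounds came from a 10 mM DMSO stock diluted into ND96. Read-out was percent inhibition of the compound-free control current. For IC50, 3–4 concentrations were each tested at least twice and fitted with a variable-slope Hill equation.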

SMILES | pIC50
COc1ccc(CC(=O)NCc2ccccc2-c2ccccc2C(=O)NCc2ccc(F)cc2F)cc1 | 5.92
C[C@H](OC(=O)NCc1ccccc1-c1ccccc1C(=O)NCCc1ccccn1)c1ccccc1 | 6.80

pIC50: −log10 of the molar value.
